uPA generation: blocks generation of uPA at the cell surface; cell surface uPA generation assay, qHTS; actives 0.31% (n = 330,000); Potency, µM (titrated, usually from 38.3 µM), usual class: inhibitors; active means well fitted inhibition curve with a large enough effect; inconclusive means small, poorly fitted or top-dose-only effect; inactive means no such curve, though single readings can be large or run the other way; tested in mouse RAW 264.7 cells; further: nearly all actives have a fitted effect of over 55% in size
miR-21 FLuc: miR-21 reporter, rising signal. HeLa miR-21 FLuc reporter, luciferase, 48 h. Potency, µM (highest dose often 38.3 µM). 340,000 tested, under 10 active. AID 2288; active = well fitted rising curve with a large enough effect; inconclusive = small, poorly fitted or top-dose-only effect; inactive = no such curve, though single readings can be large or run the other way;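 further: miR-21 action dims this reporter so a rising signal means less miR-21 action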
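HeLa cells endogenously expressing miR-21, stably carrying CMV-driven firefly luciferase with a downstream miR-21 binding site, 2000 cells/well. Titrations up to approximately 40 uM, 48 hours; luciferase luminescence read.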
TDP1 cell CPT: DT40-hTDP1 cell growth loss with CPT | chicken DT40 Tdp1-/-;hTDP1 cells + 20 nM CPT, ATP luminescence, 48 h | Potency, µM (series often up to 46.2 µM), hits mostly inhibitors | actives 12% (n = 420,000); further: nearly all actives have a fitted effect of over 55% in size
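Cell growth measured by CellTiter-Glo luminescence after a minimum 48 h, 37 C compound exposure with 20 nM CPT in Tdp1-knockout DT40 cells stably expressing hTDP1, seeded 400/well; qHTS titration format.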
DT40 TDP1 no CPT: qHTS for Inhibitors of human tyrosyl-DNA phosphodiesterase 1 (TDP1): qHTS in cells in absence of CPT; DT40 Tdp1-/- hTDP1 cells, no CPT, ATP luminescence, 48 h; actives 15% (n = 420,000); Potency, µM (highest dose often 46.2 µM), most hits filed as inhibitors; further: nearly all actives have a fitted effect of over 55% in size
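Cells were dispensed at 400 per well, compounds added by pin tool, plates incubated ≥48 hr at 37 °C, then CellTiter-Glo added for 30 min at room temperature before luminescence reading. Line: DT40 Tdp1-/- complemented with hTDP1; camptothecin omitted.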
TDP1 inh: blocks human tyrosyl-DNA phosphodiesterase 1; recombinant TDP1, AlphaScreen DNA substrate cleavage; Potency, µM (highest dose often 130 µM), most hits filed as inhibitors; Q9NUW8; actives 0.28% (n = 350,000); further: nearly all actives have a fitted effect of over 40% in size
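Enzyme-compound mixtures sat 15 min at room temperature, followed by a 5 min reaction with 15 nM final substrate and 10 min with AlphaScreen beads. Recombinant human Tdp1 was used at 1 nM final.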
Hits are given with their value; i = inactive; ? = inconclusive; nt = no result; ! = repeats disagree; [ ] = remark or other dose. Rows were chosen to be rich in hits. Some 16% of all compounds tested hit in one or more screens of this group. Unless noted, the call rests on the fitted dose curve; in most records, active means well fitted curve in the direction sought with a large enough effect; inconclusive means small, poorly fitted or top-dose-only effect, or another doubt; inactive means no such curve, though single readings can be large; an effect the other way counts as inactive or inconclusive.

SMILES | uPA generation | miR-21 FLuc | TDP1 cell CPT | DT40 TDP1 no CPT | TDP1 inh
O=C(NCc1cccnc1)/C(=C\c1ccc(-c2ccc(Br)cc2)o1)S(=O)(=O)c1ccccc1 | i | ? | 2.9µM | 3.3µM | i
O=C(NCc1cccnc1)/C(=C/c1ccc(-c2ccc(Cl)cc2)o1)S(=O)(=O)c1ccccc1 | nt | ? | 5.2µM | 7.3µM | i
CC1=CC(C)C2(COC(c3ccc[n+](C)c3)OC2)C(C)C1 (centres undefined) | i | i | 5.8µM | 3.7µM | i
COc1cc(C(=O)Nc2ccc(Cl)c([N+](=O)[O-])c2)cc(OC)c1OC | i | i | i | i | i
O=C(Nc1ccc(Cl)c([N+](=O)[O-])c1)ONC1=NCCCCC1 | i | i | ? | 13µM | i
COc1ccc([C@H]2N[C@]3(CCCN(Cc4ccc(Cl)cc4)C3=O)[C@H]3C(=O)N(Cc4ccccc4)C(=O)[C@@H]23)cc1 | nt | nt | 18µM | 23µM | nt
COc1ccc([C@H]2N[C@]3(CCCN(Cc4ccc(C)cc4)C3=O)[C@H]3C(=O)N(Cc4ccccc4)C(=O)[C@@H]23)cc1 | nt | nt | ? | 16µM | nt
COc1ccc([C@H]2N[C@]3(CCCN(Cc4ccccc4)C3=O)[C@H]3C(=O)N(C)C(=O)[C@@H]23)cc1 | nt | nt | i | i | nt
COc1ccc([C@H]2N[C@]3(CCCN(Cc4ccccc4)C3=O)[C@H]3C(=O)N(Cc4ccccc4)C(=O)[C@@H]23)cc1 | nt | nt | i | ? | nt
Cc1ccc(NC(=O)c2ccc(F)c(S(=O)(=O)N3CCOCC3)c2)cc1F | i | i | ? | ? | i
Cc1ccc(NC(=O)c2ccc(F)c(S(=O)(=O)N3CCc4ccccc4C3)c2)cc1F | nt | i | ? | 23µM | i
COc1ccc(NC(=O)c2ccc(Cl)c(S(=O)(=O)N3CCc4ccccc4C3)c2)cn1 | i | i | 21µM | 23µM | i
Cc1ccccc1NC(=O)c1ccc(F)c(S(=O)(=O)N2CCc3ccccc3C2)c1 | nt | i | i | ? | i
Cc1ccc(NC(=O)c2ccc(F)c(S(=O)(=O)NCCc3ccccc3)c2)cc1F | nt | ? | 21µM | 23µM | i
Cc1c2cnn(CC(=O)NCc3ccc(Cl)cc3)c(=O)c2c(C)n1Cc1ccc(F)cc1 | nt | i | ? | ? | i
CCc1ccccc1NC(=O)/C(=C/c1ccco1)c1ccccc1 | i | i | ? | 18µM | i
CC(C)(C)NC(=O)/C(=C/c1ccco1)c1ccccc1 | i | i | i | i | i
Cc1ccccc1NC(=O)/C(=C/c1ccco1)c1ccccc1 | i | i | 23µM | 12µM | i
COc1ccc(NC2CCCN(C(=O)C3(C)CCCCC3)C2)cc1OC (centres undefined) | i | i | ? | ? | i
N#Cc1ccc(NC(=O)COCc2cc(-c3ccco3)on2)cc1 | nt | i | ? | ? | i
O=C(N/N=C/c1ccc2c(c1)OCO2)c1cc(-c2ccccc2Cl)nc2ccccc12 | i | i | i | i | i
CCOc1ccccc1-c1cc(C(=O)N/N=C/c2ccc3c(c2)OCO3)c2ccccc2n1 | i | i | 12µM | 9.2µM | i
CCOc1ccccc1-c1cc(C(=O)N/N=C/c2ccc(O)c(OC)c2)c2ccccc2n1 | i | i | 1.5µM | 0.58µM | i
CN(C)C(=O)[C@@H]1C[C@@H](Sc2nc3ccccc3[nH]2)CN1Cc1ccnc2ccccc12 | nt | nt | 16µM | 15µM | nt
O=C1c2ccccc2C(=O)c2c(Nc3ccc(CCO)cc3)ccc(O)c21 | i | i | ? | 16µM | i
SMILES | uPA generation | miR-21 FLuc | TDP1 cell CPT | DT40 TDP1 no CPT | TDP1 inh
O=C1c2ccccc2C(=O)c2c(O)ccc(O)c21 | nt | nt | i[9.04 µM] | i[9.04 µM] | i
C=CCc1ccc(OCc2ccc(C(=O)Nc3ccc(NC(C)=O)cc3)o2)c(OC)c1 | i | i | ? | 16µM! | i
CC(=O)c1ccc(NC(=O)c2ccc(COc3ccccc3[N+](=O)[O-])o2)cc1 | i | i | ? | ? | i
O=C(Cn1cc([N+](=O)[O-])cn1)Nc1ccn(Cc2c(F)c(F)cc(F)c2F)n1 | i | i | i | i | i
COc1ccc(COc2cc(-c3cccc(OC)c3)nc3ccc(NC(=O)c4ccc(OC)cc4)cc23)cc1 | ? | i | 2.6µM | 3.3µM | i
COc1ccc(COc2cc(-c3cccc(OC)c3)nc3ccc(NC(=O)c4ccc(Cl)cc4)cc23)cc1 | ? | i | ? | 16µM | i
Cc1cc(OC(=O)c2ccc(S(=O)(=O)N(C)C)cc2)c([N+](=O)[O-])c(=O)[nH]1 | i | i | i | i | i
O=c1[nH]c2ccc(S(=O)(=O)NCCO)cc2[nH]1 | i | i | i | i | i
CCOc1cc(/C=C(/C#N)c2nc3ccccc3[nH]2)ccc1OCc1ccc(C(=O)O)o1 | i | i | i | ? | i
COc1cc(/C=C(/C#N)c2nc3ccccc3[nH]2)ccc1OCC(=O)Nc1ccccc1C | i | i | 3.3µM | 6.5µM | i
COc1cc(/C=C(/C#N)c2nc3ccccc3[nH]2)ccc1OCC(=O)Nc1ccccc1C(C)C | ? | i | 4.6µM | 5.8µM | i
COc1cc(/C=C(\CC(=O)O)c2nc3ccccc3s2)ccc1OCC(=O)Nc1ccccc1F | i | nt | i | ? | nt
COc1cc(/C=C(\C#N)c2nc3ccccc3s2)ccc1OCC(=O)Nc1ccccc1 | i | i | 5.2µM | 4.6µM | i
CC(=O)Nc1cc(C(=O)N2CCCC2)ccc1S(=O)(=O)c1ccc(Cl)cc1 | nt | i | i | i | i
CS(=O)(=O)c1ccc(Cl)c(NC(=O)COC(=O)C23CC4CC(CC(C4)C2)C3)c1 | i | nt | i | i | i
OCC[C@H]1C[C@H](O)[C@@H](O)[C@]2(Cc3ccccc3O2)O1 | i | nt | i | i | nt
CSc1ccc(CCNC(=O)c2cc3c(-c4ccccc4F)nn(C)c3s2)cc1 | nt | i | ? | ? | i
COc1ccc(-c2nn(C)c3sc(C(=O)N4CCN(c5cccc(Cl)c5)CC4)cc23)cc1OC | nt | i | 15µM | i | i
Cn1nc(-c2ccccc2F)c2cc(C(=O)N3CCN(c4ccccc4F)CC3)sc21 | nt | ? | 4.1µM | 7.3µM | i
COc1cccc(-c2nn(C)c3sc(C(=O)N4CCOCC4)cc23)c1 | i | i | i | ? | i
Cn1nc(-c2ccc(Cl)cc2)c2cc(C(=O)N3CCOCC3)sc21 | i | i | ? | 21µM | i
Cn1nc(-c2ccccc2F)c2cc(C(=O)N3CCN(C(=O)c4ccco4)CC3)sc21 | i | nt | 29µM | ? | nt
CCCCNC(=S)NNc1c(Cl)cc(Cl)cc1Cl | i | i | ? | i | i
COc1ccc(N2CCN(C(=O)c3cc4c(-c5ccc(Cl)cc5)nn(C)c4s3)CC2)cc1 | i | i | ? | 16µM | i
COc1ccc(N2CCN(C(=O)c3nn(C)c4c3CSc3ccccc3-4)CC2)cc1 | nt | i | i | ? | i
O=C(c1cc(-c2ccc(Cl)cc2)n(-c2ccc(Cl)cc2)n1)N1CCOCC1 | i | i | 16µM | ? | i
COc1ccc(N2CCN(C(=O)c3cc4c(-c5ccccc5F)nn(C)c4s3)CC2)cc1 | nt | i | ? | 9.2µM | i

High-throughput results from PubChem.
